Assay: In vitro microsomal metabolic stability, human liver microsomes
Format: in vitro ADME
Experimental: Buffers: PBK Buffer: 50 mM potassium phosphate buffer (PPB), pH 7.2, with 3.3 mM Magnesium Chloride.
TA Intermediate solution: Compound or control (3 μL) diluted from stock solution (10 mM) with 297 μL 90.0% methanol/water. (Conc: 100 μM; 1.0% DMSO, 89.1% MeOH).
Control cocktail intermediate solution: Each control (3 μL) was diluted with 291 μL 90.0% methanol/water.
Diluted TA intermediate stock solution and PC control stock were made by transferring 80 μL of 100 μM TA stock solution into new tubes and then adding 720 μL of 1.0% DMSO in 50 mM potassium phosphate buffer (conc. 10 μM; 1.0% DMSO, 8.91% MeOH).
Preparation of Liver microsomes working solution (1.25×)(final Conc.: 0.5 mg/mL).
Acetonitrile:methanol (9:1, v/v)(including 200 ng/mL tolbutamide and 200 ng/ml labetalol hydrochloride as internal standards).
Working solution: Intermediate solution (80 μL) was diluted with 720 μL 1.0% DMSO in 50 mM potassium phosphate buffer (Conc.: 10 μM; 1.0% DMSO, 8.91% MeOH)
Procedure: Stock solution was added to each of the time point plates. Microsomes solution (360 μL/well), TA/PC (45 μL/well), and NADPH (45 μL/well) min. (Conc: 1.0 μM, 0.10% DMSO, 0.891% MeOH) were added to the incubation plates. To the T60 and NCF60 plate, TA (15 ul/well) and Microsomes (120 ul) were added. To the blank plate, microsome (50 ul/well) with stop solution (150 ul/well) were added. At the end of each time point, 50 ul/well was aliquoted from the incubation plate. The sampling plates were shaken for approximately 10 min. on a shaker and the samples were centrifuged at 4000 rpm for 15 min. Supernatant (120 μL) was transferred for LC/MS/MS.Compounds from Table 3 were incubated at 37° C. with liver microsomes (pooled from multiple donors) at 1 μM in the presence of a NADPH regenerating system at 0.5 mg/ml microsomal protein. Positive controls included testosterone (3A4 substrate), propafenone (2D6) and diclofenac (2C9), which were incubated with microsomes in the presence of an NADPH regenerating system. At time points (0, 5, 10, 20, 30 and 60 minutes), samples were removed and immediately mixed with cold acetonitrile containing the internal standard (IS). Test compounds incubated with microsomes without the NADPH regenerating system for 60 min are also included. A single point for each test condition (n=1) was obtained, and samples were analyzed by LC/MS/MS. Disappearance of the test compound was assessed based on peak area ratios of analyte/IS (no standard curve).

## Rapamycin [reference compound]
  CL: 130 µL/min/mg
  CLint: 117 mL/min/kg
1 μM, 0.5 mg/ml protein, NADPH
  T1/2: 10.7 min
With NADPH, 60 min
  Remaining (T = 60 min): 1.40%
Without NADPH regenerating system, 60 min
  Remaining (T = NCF60 min): 116%
